Screening data from PubChem.
TrxR1 inh: inhibitors of rat thioredoxin reductase 1; Potency, µM (series often up to 114 µM), without a hit: at the highest dose activity change, negative = inhibition, hits mostly inhibitors; recombinant rTrxR1, NADPH fluorescence consumption, selenite substrate; hit rate 1% among 390,000; AID 588453; further: potency means the concentration at half of the fitted maximal effect; on the % scale 0 is the no-effect control and ±100 the full control effect; nearly all actives have a fitted effect of over 65% in size
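Rat TrxR1 (90 nM in the dispensed reagent) was pre-reduced with 400 uM NADPH for 5 min at room temperature, then incubated with compound for 15 min. After 400 uM selenite was added, NADPH fluorescence (Ex 340/Em 450 nm) was followed for 8 min.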
ClpP mod: qHTS Assay for Activators of ClpP; hit rate 1.9% among 340,000; Potency, µM (titrated, usually from 57.5 µM), for the others: at the top dose activity change, negative = active; AID 651965, 2013; purified B. subtilis ClpP, FRET peptide cleavage, 20 min; active means well fitted falling curve with a large enough effect; inconclusive means small, poorly fitted or top-dose-only effect; inactive means no such curve, though single readings can be large or run the other way; further: potency means the concentration at half of the fitted maximal effect; the source files actives as falling curves though it sought activators and does not explain the sign; nearly all actives have a fitted effect of over 65% in size
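Buffer: 100 mM Tris/HCl pH8, 100 mM KCl, 0.05% low protease BSA, 2.5% glycerol, 0.01% Tween-20. ClpP 10 microg/mL final; 20 min RT; delta FRET normalized to ADEP and DMSO controls.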
Anesthetic bind: candidate novel general anesthetic via apoferritin binding | Potency, µM (top dose mostly 77.5 µM), inactives show at the top dose activity change, negative = displacement, actives largely listed as inhibitors | AID 485281 | P02791 | apoferritin/1-aminoanthracene competitive binding, fluorescence | hit rate 0.074% among 350,000; further: potency means the concentration at half of the fitted maximal effect; on the % scale 0 is the no-effect control and ±100 the full control effect; nearly all actives have a fitted effect of over 20% in size
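Horse-spleen apoferritin (10 uM) was mixed with 50% saturated 1-aminoanthracene in PBS, exposed to compounds for 10 min at room temperature, and read for fluorescence (ex 380 nm, em 535 nm). Competitive displacement was fitted with a four-parameter Hill equation.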
TrxR1 substrate: rat thioredoxin reductase 1 substrate activity; purified TrxR1 substrate turnover, NADPH consumption readout; Potency, µM (doses to about 114 µM), inactives show top-dose activity change, negative = substrate turnover; O89049; hit rate 0.01% among 390,000; further: potency means the concentration at half of the fitted maximal effect; on the % scale 0 is the no-effect control and ±100 the full control effect; nearly all actives have a fitted effect of over 50% in size
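Rat TrxR1, dispensed at 90 nM, was prereduced with 400 uM NADPH (final) for 5 min at ~22 deg C, then incubated with compound 15 min before 400 uM selenite. A first-read NADPH fluorescence drop versus no-compound background flagged substrates.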
miR-21 reporter: raises the signal of a miR-21 reporter | HeLa miR-21 FLuc reporter, luciferase, 48 h | Potency, µM (highest dose often 38.3 µM), for inactives: at the highest dose reporter change, positive = more light | 340,000 tested, under 10 active | AID 2288; active = well fitted rising curve with a large enough effect; inconclusive = small, poorly fitted or top-dose-only effect; inactive = no such curve, though single readings can be large or run the other way;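 also: % of control where 0% means no effect; miR-21 action dims this reporter so a rising signal means less miR-21 action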
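HeLa cells endogenously expressing miR-21, stably carrying CMV-driven firefly luciferase with a downstream miR-21 binding site, 2000 cells/well. Titrations up to approximately 40 uM, 48 hours; luciferase luminescence read.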
An asterisk follows results filed as active; ? = inconclusive; / = no result given; [ ] = remark or other dose. Shown are actives, neighbours in structure and some others; about 2.5% of the full set was active somewhere. Unless noted, the call rests on the fitted dose curve; in most records, active means well fitted curve in the direction sought with a large enough effect; inconclusive means small, poorly fitted or top-dose-only effect, or another doubt; inactive means no such curve, though single readings can be large; an effect the other way counts as inactive or inconclusive.

1. Cc1cc2c(cc1S(=O)(=O)Nc1cccc(Cl)c1C)OCCN2C
2. CC(C)c1ccc(NC(=O)CN2C(=O)CSc3ccc(S(=O)(=O)N4CCCC4)cc32)cc1
3. COc1ccc(C#Cc2cnc(Cl)c3cncnc23)cc1OC
4. Clc1ncc(C#Cc2ccccc2)c2ncncc12
5. Cc1ccc2[nH]c(=O)c(CN(Cc3ccco3)Cc3nnnn3Cc3ccccc3)cc2c1
6. Cc1ccc2[nH]c(=O)c(CN(Cc3cccnc3)Cc3nnnn3CCN3CCOCC3)cc2c1
7. COc1ccccc1CN(Cc1cc2cc3c(cc2[nH]c1=O)OCCO3)Cc1nnnn1Cc1ccco1
8. CCc1ccc2[nH]c(=O)c(CN(Cc3ccccc3)Cc3nnnn3Cc3ccccc3)cc2c1

assay / entry	1	2	3	4	5	6	7	8
TrxR1 inh	27%	6%	-18%	18µM*	-27%	11µM*	5.6µM*	?
ClpP mod	-3%	0%	?	4%	?	-28%	28µM*	25µM*
Anesthetic bind	4%	-7%	/	/	/	-8%	72%	/
TrxR1 substrate	7%	-7%	12%	35%	-13%	10%	44%	7%[0.0914 µM]
miR-21 reporter	-6%	-2%	/	/	/	-1%	-17%	/

9. O=c1[nH]c2cc3c(cc2cc1CN(Cc1ccc2c(c1)OCO2)Cc1nnnn1CC1CCCO1)OCO3 (configuration not stated)
10. O=C(Nc1ccc(Br)cc1)c1ccc(F)c(S(=O)(=O)N2CCc3ccccc32)c1
11. O=c1[nH]c2cc3c(cc2cc1CN(Cc1ccccc1)Cc1nnnn1Cc1ccco1)OCCO3
12. CCc1ccc2[nH]c(=O)c(CN(Cc3ccccc3)Cc3nnnn3Cc3ccco3)cc2c1
13. COc1ccc2[nH]c(=O)c(CN(Cc3nnnn3Cc3ccccc3)CC3CCCO3)cc2c1 (configuration not stated)
14. Cc1ccc2cc(CN(C(=O)c3ccco3)c3cccc(C)c3C)c(=O)[nH]c2c1
15. Cc1cccc2cc(CN(CC3CCCO3)C(=O)c3ccco3)c(=O)[nH]c12 (configuration not stated)
16. COc1ccccc1NC(=O)c1sc(-c2ccc(Cl)cc2)cc1N

assay / entry	9	10	11	12	13	14	15	16
TrxR1 inh	?	8%[57.1 µM]	18µM*	-24%	?	18µM*	16µM*	-6%
ClpP mod	16µM*	-20%	-16%	-10%	28µM*	/	-23%	?
Anesthetic bind	-13%	-11%	257%	-11%	59%	-13%	-18%	-4%
TrxR1 substrate	28%	1%[57.1 µM]	22%	-1%	19%	6%	9%	16%
miR-21 reporter	-2%	24%	-50%	-5%	-18%	0%	-9%	-38%

17. CCOC(=O)c1ccccc1NC(=O)CSc1ncc2c(n1)-c1ccccc1N(CC)S2(=O)=O
18. COc1ccc(NC(=O)CCc2nnc3n(Cc4ccccc4Cl)c(=O)c4ccccc4n23)cc1
19. Cc1cccc(N(C)S(=O)(=O)c2nnc(NC(=O)C(C)Oc3ccccc3)s2)c1 (configuration not stated)
20. CCc1cc2c(cc3c(=O)n(CC(=O)N4CCCCC4)nc(CC)n32)s1
21. Cc1ccc2cc(CN(Cc3nnnn3Cc3ccco3)CC3CCCO3)c(=O)[nH]c2c1C (configuration not stated)
22. Cc1ccc2cc(CN(Cc3ccco3)Cc3nnnn3Cc3ccco3)c(=O)[nH]c2c1
23. O=c1[nH]c2cc3c(cc2cc1CN(Cc1cccs1)Cc1nnnn1Cc1ccco1)OCCO3
24. O=c1[nH]c2cc3c(cc2cc1CN(Cc1cccnc1)Cc1nnnn1Cc1ccco1)OCCO3

assay / entry	17	18	19	20	21	22	23	24
TrxR1 inh	32%[57.1 µM]	21%	-13%	9%	25µM*	?	16µM*	11µM*
ClpP mod	4%	0%	-5%	-5%	-22%	-13%	?	14µM*
Anesthetic bind	-20%	6%	13%	-8%	-6%	/	-6%	103%
TrxR1 substrate	10%[57.1 µM]	6%	59%	4%	-6%	-6%	27%	56%
miR-21 reporter	0%	-2%	-47%	-9%	-5%	/	-20%	-9%

Molecules listed so far that have a thiophene ring, fused or not (3):
16. COc1ccccc1NC(=O)c1sc(-c2ccc(Cl)cc2)cc1N
20. CCc1cc2c(cc3c(=O)n(CC(=O)N4CCCCC4)nc(CC)n32)s1
23. O=c1[nH]c2cc3c(cc2cc1CN(Cc1cccs1)Cc1nnnn1Cc1ccco1)OCCO3

assay / entry	16	20	23
TrxR1 inh	-6%	9%	16µM*
ClpP mod	?	-5%	?
Anesthetic bind	-4%	-8%	-6%
TrxR1 substrate	16%	4%	27%
miR-21 reporter	-38%	-9%	-20%

Next entries.
25. Cc1cc(C)c2cc(CN(Cc3ccc4c(c3)OCO4)Cc3nnnn3Cc3ccco3)c(=O)[nH]c2c1
26. Cc1ccc2[nH]c(=O)c(CN(Cc3ccc4c(c3)OCO4)Cc3nnnn3Cc3ccco3)cc2c1
27. Cc1ccc2[nH]c(=O)c(CN(CCCO)Cc3nnnn3Cc3ccco3)cc2c1
28. COc1cc(OC)c(OC)cc1/C=c1\[nH]c(=O)/c(=C/c2cc(OC)c(OC)cc2OC)[nH]c1=O
29. COc1ccc(CC(=O)N/N=C(\C)c2cccc(NC(=O)C3CC3)c2)cc1
30. C/C(=N\NC(=O)C1(C)CC1(Br)Br)c1cccc(NC(=O)C2CCC2)c1 (configuration not stated)
31. COC1(OC)C(/C=C/c2ccc(C)cc2)C(C#N)(C#N)C1(OC)OC (configuration not stated)
32. CC1=CC(C)(C)Nc2ccc(OC(=O)CN3C(=O)c4cccc5cccc(c45)C3=O)cc21

assay / entry	25	26	27	28	29	30	31	32
TrxR1 inh	-2%	6%[57.1 µM]	28µM*	1%	1%	13%	-16%[57.1 µM]	8.9µM*
ClpP mod	-10%	-9%	-17%	3%	-1%	22µM*	32µM*	-9%
Anesthetic bind	-5%	-1%	/	/	-21%	-13%	/	-24%
TrxR1 substrate	7%	-4%[57.1 µM]	0%	4%	-7%	-3%	-5%[57.1 µM]	9%
miR-21 reporter	-11%	0%	/	/	-4%	14%	/	15%

33. CC1=CC(C)(C)Nc2ccc(OC(=O)CN3C(=O)c4ccccc4C3=O)cc21
34. CCCNC(=O)C1CCC(Cn2c(=O)c3sccc3n(CC(=O)NCc3cccc(OC)c3OC)c2=O)CC1 (configuration not stated)
35. CC1Cc2ccccc2N1S(=O)(=O)c1nnc(NC(=O)c2cccc(F)c2)s1 (configuration not stated)
36. CCOC(=O)N1CCN(/[N+]([O-])=N/Oc2ccc([N+](=O)[O-])cc2[N+](=O)[O-])CC1
37. CCOC(=O)CCCC(=O)N1CCN(/[N+]([O-])=N/Oc2ccc([N+](=O)[O-])cc2[N+](=O)[O-])CC1
38. CCOC(=O)N1CCN(c2ccc([N+](=O)[O-])cc2)CC1
39. CCCCCCCCCCCCOC(=O)N1CCN(/[N+]([O-])=N/Oc2ccc([N+](=O)[O-])cc2[N+](C)=O)CC1
40. CCOC(=O)c1nnn(-c2ccc([N+](=O)[O-])cc2[N+](=O)[O-])c1C
41. COCCn1c(C)cc(O)c(C(c2ccccc2OC)N2CCN(c3ccccc3)CC2)c1=O (configuration not stated)
42. COc1ccccc1CNc1ncnc2onc(-c3ccc(F)cc3)c12

assay / entry	33	34	35	36	37	38	39	40	41	42
TrxR1 inh	-9%	21%	8%	6.7µM*	16µM*	-12%	50µM*	23%	?	2%[57.1 µM]
ClpP mod	25µM*	-3%	-5%	/	/	-2%	/	1%	-1%	5%
Anesthetic bind	?	37%	-9%	?	/	-18%	/	-8%	2%	-3%
TrxR1 substrate	-2%	-1%	-5%	3%[57.1 µM]	-6%	-6%	-7%[0.457 µM]	-1%	6%[57.1 µM]	-5%[57.1 µM]
miR-21 reporter	?	2%	-5%	/	/	-4%	/	15%	3%	-5%
